Laboratory results from publication doi:10.1101/2024.09.21.614250 (bioRxiv, 2024).

Biological target: T1, huPDL2^ECD-huFc (human, UniProt Q9BQ51 20-220)
T1 sequence: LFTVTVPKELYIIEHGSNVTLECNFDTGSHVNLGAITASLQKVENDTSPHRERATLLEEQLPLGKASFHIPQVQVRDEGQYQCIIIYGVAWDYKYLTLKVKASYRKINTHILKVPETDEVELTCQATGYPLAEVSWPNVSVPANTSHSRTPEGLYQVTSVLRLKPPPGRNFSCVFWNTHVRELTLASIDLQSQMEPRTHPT
Test: BLI

B1: huPD1^ECD-His (domain or fragment)
chain: LDSPDRPWNPPTFSPALLVVTEGDNATFTCSFSNTSESFVLNWYRMSPSNQTDKLAAFPEDRSQPGQDCRFRVTQLPNGRDFHMSVVRARRNDSGTYLCGAISLAPKAQIKESLRAELRVTERRAEVPTAHPSPSPRPAGQFQTLV
  fold higher affinity (Kd) than the mouse PD1:PDL2 pair: 24 fold
